Usually Ki stands for the dissociation constant of the complex between target and ligand, obtained from inhibition or displacement.

The chains behind the UniProt entries cited, without tags or fusion partners. Where a name states a change or a piece, a line headed by the entry shows the natural chain unless it says otherwise. Residues count along the entry.
UniProt Q63380, 1-617: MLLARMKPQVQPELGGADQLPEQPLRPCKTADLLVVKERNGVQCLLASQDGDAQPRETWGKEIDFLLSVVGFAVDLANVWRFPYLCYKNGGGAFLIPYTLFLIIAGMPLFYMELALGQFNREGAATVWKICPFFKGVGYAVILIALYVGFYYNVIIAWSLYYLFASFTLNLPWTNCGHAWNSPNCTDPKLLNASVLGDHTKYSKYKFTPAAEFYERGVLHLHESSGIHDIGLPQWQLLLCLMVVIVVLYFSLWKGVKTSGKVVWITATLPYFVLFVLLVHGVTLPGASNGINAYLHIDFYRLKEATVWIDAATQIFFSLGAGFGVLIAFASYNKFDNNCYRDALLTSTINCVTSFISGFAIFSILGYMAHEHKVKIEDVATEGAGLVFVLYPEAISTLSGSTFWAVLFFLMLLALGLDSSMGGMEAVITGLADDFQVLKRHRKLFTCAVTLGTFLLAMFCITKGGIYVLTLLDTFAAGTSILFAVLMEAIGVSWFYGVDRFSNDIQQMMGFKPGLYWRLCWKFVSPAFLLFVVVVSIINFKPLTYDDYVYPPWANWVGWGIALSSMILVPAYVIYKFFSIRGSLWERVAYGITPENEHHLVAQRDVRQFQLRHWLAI
UniProt Q9R0C9, whole entry: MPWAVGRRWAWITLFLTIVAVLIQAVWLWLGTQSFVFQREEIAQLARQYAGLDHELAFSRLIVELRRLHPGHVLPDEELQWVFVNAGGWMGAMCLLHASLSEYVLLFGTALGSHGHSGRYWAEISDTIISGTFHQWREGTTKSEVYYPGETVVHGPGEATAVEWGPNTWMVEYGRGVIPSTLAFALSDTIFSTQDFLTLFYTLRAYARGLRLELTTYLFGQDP
UniProt Q5U3Y7: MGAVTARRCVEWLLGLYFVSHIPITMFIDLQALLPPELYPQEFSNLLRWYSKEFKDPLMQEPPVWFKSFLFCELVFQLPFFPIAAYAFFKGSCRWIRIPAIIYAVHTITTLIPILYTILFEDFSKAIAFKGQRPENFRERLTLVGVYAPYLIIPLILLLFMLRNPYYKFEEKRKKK

The structures appear in SMILES notation.

For one assay, the target named is norepinephrine transporters (Rattus norvegicus, UniProt Q63380). Put plainly: Non-σ competition binding, [3H]nisoxetine. The settings on record: read-out: NET Ki; rat brain homogenates.
As to `CC(=O)c1ccc2c(c1)oc(=O)n2CCCCN1CCN(c2ccc(F)cc2)CC1.Cl.Cl` [SN-79], the Ki amounted to 177 ± 14 nM.

A further assay concerns the target σ-1 (Rattus norvegicus (Rat), UniProt Q9R0C9). Put plainly: σ-1 binding in rat brain homogenates, [3H](+)-pentazocine. As to conditions: read-out: σ-1 (Ki).
On to `CC(CCCN1C(=O)CSc2ccccc21)N1CCN(C2CCCCC2)CC1` (stereo not shown) [AZ-60], for which the Ki is 92.4 ± 9.76 nM.
Same read-out and setting: the same measure for `O=c1oc2cc([N+](=O)[O-])ccc2n1CCCCN1CCN(C2CCCCC2)CC1` [CM 188]: 11.1 ± 1.61 nM; for `COc1cc2c(cc1OC)CN(CCCCn1c(=O)oc3ccccc31)CC2` [CM 295]: 74.3 ± 3.77 nM.
The same measure, in the same setting: the same measure for `CC(O)c1ccc2c(c1)oc(=O)n2CCCCN1CCN(c2ccc(F)cc2)CC1` (stereo not shown) [SN-249]: 609 ± 39.8 nM; for `CC(F)c1ccc2c(c1)oc(=O)n2CCCCN1CCN(c2ccc(F)cc2)CC1` (stereo not shown) [SN-253]: 162 ± 11.4 nM.

The target of a further assay is σ-2 (Rattus norvegicus (Rat), UniProt Q5U3Y7). Put plainly: σ-2 binding in rat brain homogenates, [3H]DTG plus (+)-pentazocine. The settings on record: read-out: σ-2 (Ki).
Consider `O=c1oc2ccccc2n1CCCCN1CCN(Cc2ccccc2)CC1` [CM 159], for which the Ki worked out at 46.4 ± 12.6 nM.
Still for that read-out and setting: the same measure for `O=c1oc2ccccc2n1CCCCN1CC=C(c2ccc(Cl)cc2)CC1` [CM 165]: 14.4 ± 3.09 nM.
The same measure, in the same setting: the result for `O=c1oc2ccccc2n1CCCCN1CCN(CC2CCCCC2)CC1` [CM 171] reads 13.9 ± 2.86 nM; that for `O=c1oc2ccccc2n1CCCCN1CCC(c2ccccc2)CC1` [CM 172], 17.2 ± 1.04 nM.

Source of the values: patent publication US9724435B2 (The University of Mississippi, priority 2007, dated 2017).
